Results from patent US9849185B2, “Benzoic acid, benzoic acid derivatives and heteroaryl carboxylic acid conjugates of hydromorphone, prodrugs, methods of making and use thereof” (priority 2011, dated 2017).
Structures can show the parent of a compound that is named as a salt.

Protein sequences, listed by entry. Tags and fused reporters are not part of them.
UniProt P35372, whole entry: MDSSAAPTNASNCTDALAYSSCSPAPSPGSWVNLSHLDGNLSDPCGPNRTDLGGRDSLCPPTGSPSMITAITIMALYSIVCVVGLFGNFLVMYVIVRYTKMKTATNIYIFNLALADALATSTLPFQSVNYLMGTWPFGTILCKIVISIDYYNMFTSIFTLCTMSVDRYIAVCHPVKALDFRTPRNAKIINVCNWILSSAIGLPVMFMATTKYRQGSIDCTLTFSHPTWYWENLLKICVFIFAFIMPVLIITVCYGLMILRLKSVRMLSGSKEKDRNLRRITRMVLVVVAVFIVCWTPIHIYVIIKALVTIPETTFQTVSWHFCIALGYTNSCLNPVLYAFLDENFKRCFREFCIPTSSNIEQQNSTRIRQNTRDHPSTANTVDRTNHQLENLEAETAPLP

Key:
[1] = rat, escalating dosages
[2] = target: enteric μ-opioid receptors (Homo sapiens, UniProt P35372)

| Compound | exposure (AUC) to hydromorphone when dosed above the therapeutic level ([1]; oral solutions, result in words) | affinity to the enteric μ-opioid receptors [2] | dosages that caused death of the test animals ([1]; oral) |
| --- | --- | --- | --- |
| CC(=O)Oc1ccccc1C(=O)OC1=CC[C@H]2[C@H]3Cc4ccc(OC(=O)c5ccccc5OC(C)=O)c5c4[C@@]2(CCN3C)[C@H]1O5 [3,6-di-Aspirin-HM, 3,6-di-aspirin-hydromorphone] | reached a plateau | insignificant affinity | – |
| CN1CCC23c4c5ccc(O)c4OC2C(=O)CCC3C1C5 (stereo not drawn) [hydromorphone hydrochloride, 4,5-α-epoxy-3-hydroxy-17-methylmorphinan-6-one, reference compound] | – | – | above 14 mg/kg |
